Consider twelve molecules from ChEMBL document CHEMBL1134881, “3-Pyrroline containing arylacetamides: a novel series of remarkably selective kappa-agonists” (2002).

The subject of this assay is Mus musculus. Description: Effective intraperitoneal dose required for the analgesic activity in in vitro mouse hot plate assay. For orientation: Hot-plate and tail-flick tests time the reaction to a heat stimulus.

The ED50 is the dose at which the effect has come halfway, by size or by number of responders. `CSCC[C@@H](CN1CC=CC1)N(C)C(=O)Cc1ccc(Cl)cc1` registered an ED50 of 2.13 mg/kg.
The figure for `COc1ccc(CC(=O)N(C)[C@@H](CCSC)CN2CC=CC2)cc1` is above 10 mg/kg; for `COc1ccc(CC(=O)N(C)[C@H](CN2CC=CC2)C(C)C)cc1` it is 2.57 mg/kg.
Molecule `CC(C)[C@@H](CN1CC=CC1)N(C)C(=O)Cc1ccc(Cl)c(Cl)c1` gave a median effective dose (ED50) of 0.023 mg/kg.
The figure for `CC(C)[C@@H](CN1CC=CC1)N(C)C(=O)Cc1ccc(Br)cc1` is 0.18 mg/kg.
The same measure for `CSCC[C@@H](CN1CC=CC1)N(C)C(=O)Cc1ccc(Cl)c(Cl)c1`: 0.18 mg/kg.
The same measure for `CSCC[C@@H](CN1CC=CC1)N(C)C(=O)Cc1ccc(Br)cc1`: 2.36 mg/kg.
On to `CSCC[C@@H](CN1CC=CC1)N(C)C(=O)Cc1ccc(F)cc1`, for which the ED50 is at least 10 mg/kg.
The molecule `CC(C)[C@@H](CN1CC=CC1)N(C)C(=O)Cc1ccc(Cl)cc1` came in with an ED50 of 0.25 mg/kg.
As to `CSCC[C@@H](CN1CC=CC1)N(C)C(=O)Cc1ccc([N+](=O)[O-])cc1`, it took a dose of 2 mg/kg to reach the 50% effect level (ED50).
The same measure for `CC(C)[C@@H](CN1CC=CC1)N(C)C(=O)Cc1ccc([N+](=O)[O-])cc1`: 0.17 mg/kg; for `CC(C)[C@@H](CN1CC=CC1)N(C)C(=O)Cc1ccc(F)cc1`: 1.16 mg/kg.
